Measured values as given in the NIST ThermoML archive (doi:10.1021/acs.jced.9b00658).
± gives the expanded uncertainty stated by the source.

Legend:
[1] = Molar enthalpy of transition or fusion; settings: Crystal; DSC
[2] = Crystal; DSC

Molar enthalpy of transition or fusion [1]: 6.73 ± 0.98 kcal/mol
Triple point temperature [2]: 413.88 ± 1 K
SMILES: COC(=O)c1ccc(C(=O)OC)cc1 [dimethyl 1,4-benzenedicarboxylate]
